Target: T1, 15-LOX-2 (Homo sapiens, UniProt O15296)
T1 construct: endogenous in cells; host or cells: A549 cell lysate
T1 sequence (O15296 1-676): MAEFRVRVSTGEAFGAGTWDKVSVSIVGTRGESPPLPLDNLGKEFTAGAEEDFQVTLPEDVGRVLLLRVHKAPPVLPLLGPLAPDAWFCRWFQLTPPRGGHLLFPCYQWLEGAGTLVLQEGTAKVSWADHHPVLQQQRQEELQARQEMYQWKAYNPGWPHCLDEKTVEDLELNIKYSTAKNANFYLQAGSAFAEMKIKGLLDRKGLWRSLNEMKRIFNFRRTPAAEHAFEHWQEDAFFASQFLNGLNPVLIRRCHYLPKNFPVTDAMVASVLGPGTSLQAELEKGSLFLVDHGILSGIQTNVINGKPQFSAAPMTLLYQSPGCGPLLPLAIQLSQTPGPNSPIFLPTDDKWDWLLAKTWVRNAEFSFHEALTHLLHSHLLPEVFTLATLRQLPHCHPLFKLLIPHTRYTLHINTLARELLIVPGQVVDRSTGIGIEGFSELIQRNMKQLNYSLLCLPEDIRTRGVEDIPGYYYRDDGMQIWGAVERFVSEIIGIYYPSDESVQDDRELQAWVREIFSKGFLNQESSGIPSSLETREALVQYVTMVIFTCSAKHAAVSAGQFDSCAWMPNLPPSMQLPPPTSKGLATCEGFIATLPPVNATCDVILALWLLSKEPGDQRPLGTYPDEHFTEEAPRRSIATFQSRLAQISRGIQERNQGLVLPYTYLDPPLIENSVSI
Assay: ABP-based ELISA assay with A549 cell lysate, 15-LOX-2
Assay type: biochemical
Experimental: A549 cell lysate was treated with a serial dilution of the respective inhibitor. Subsequently, samples were labeled by treatment with 1 μM of Labelox B for 1 min. […] Data are mean±s.d., n≥3 independent experiments. […]
1.6. Immunoblotting Analysis […]
1.7. ABPP-based LOX inhibitor specificity validation
A549 cells were lysed by RIPA buffer supplemented with 1x PIC. After sonication and centrifugation, the supernatant was collected, and the protein concentration was determined by a Pierce BCA Protein Assay Kit (Thermo Fisher Scientific, USA). The lysates were then diluted with PBS to 300 ng/µl and stored in -20°C. To label endogenous LOXs with Labelox B under the competition condition, 180 µl diluted lysates were incubated with 200 µl different LOX inhibitor solution (in PBS) with desired concentrations for 18 min to inhibit LOXs activity. Later, 20 µl of a 20 µM Labelox B (in PBS) was added and incubated shortly for 2 min, followed by adding 50 µl of a 0.5 M EDTA to stop the labeling reaction. The reaction mixture was 450 µl in total. Inhibitors and Labelox B were absent in positive and […]
(1 picture or pasted object on this page, not shown here) […]
negative control, respectively. […]
(1:500 dilution in PBS) for overnight at 4°C. […] The absorbance at […]

CC(c1cc2ccccc2s1)N(O)C(N)=O (stereo not shown) [Zileuton]
Effect on ABP labeling: little or no effect
